Earlier results, collected in patent US11083748B2 (priority 2003, dated 2021).

What was measured:
[1] = following intramuscular administration

Structure (SMILES): OCC(S)CS (stereo not drawn)
- time until essentially all renally excreted [1]: ≤ 4 h
- patients experiencing one of several adverse events (patients; 5 mg/kg dose): Approximately 50%
- rise in systolic and diastolic blood pressure (patients; human, in vivo): up to 50 mmHg
